Protein sequences, listed by entry. Tags and fused reporters are not part of them. Lines headed by an entry give the natural chain unless they say otherwise; changes in a name come on top.
UniProt Q9Y2T6: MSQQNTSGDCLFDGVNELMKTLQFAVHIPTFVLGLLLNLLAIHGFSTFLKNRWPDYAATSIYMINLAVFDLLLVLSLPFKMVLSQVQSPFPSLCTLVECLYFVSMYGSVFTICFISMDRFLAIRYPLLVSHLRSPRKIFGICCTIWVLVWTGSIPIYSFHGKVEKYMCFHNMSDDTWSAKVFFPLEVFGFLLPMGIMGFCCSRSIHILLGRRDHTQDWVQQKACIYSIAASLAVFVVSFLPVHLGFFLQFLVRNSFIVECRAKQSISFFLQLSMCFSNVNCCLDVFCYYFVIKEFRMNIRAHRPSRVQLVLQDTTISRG

According to patent publication US11389415B2, “Methods of regulating cannabinoid receptor activity-related disorders and diseases” (The United States of America as represented by the …, priority 2012, dated 2022):

Target: GPR55 (Homo sapiens, UniProt Q9Y2T6)
Test: Cellular uptake of TocriFluor T1117 in HepG2 cells
Format: cell-based
Design: host or cells: HepG2 hepatocarcinoma cells

Cc1c(C(=O)NN2CCCCC2)nn(-c2ccc(Cl)cc2Cl)c1-c1ccc(I)cc1 [AM251, 1-(2,4-dichlorophenyl)-5-(4-iodophenyl)-4-methyl-N-(1-piperidyl)pyrazole-3-carboxamide]
effect of pretreatment on T1117 incorporation (HepG2, AM630 1 μM, WIN 55,212-2 1 μM (1 hour), AM251 1 μM (30 minutes)): neither inhibited nor enhanced constitutive T1117 incorporation
delay in the cellular accumulation of T1117 (simultaneous addition of 100× molar excess of unlabeled AM251, T1117 100 nM): 18 min
